Our source for the IC50 values is PMC5048659, “Lesinurad, a novel, oral compound for gout, acts to decrease serum uric acid through inhibition of urate transporters in the kidney” (Arthritis Research & Therapy, 2016).

Sequences of proteins named here, by UniProt entry; tags and fusion partners are left off. A line that says so, or that is headed by a name, gives the form on record, which may keep a tag or linker.
UniProt Q96S37, with tags, fused parts or gaps: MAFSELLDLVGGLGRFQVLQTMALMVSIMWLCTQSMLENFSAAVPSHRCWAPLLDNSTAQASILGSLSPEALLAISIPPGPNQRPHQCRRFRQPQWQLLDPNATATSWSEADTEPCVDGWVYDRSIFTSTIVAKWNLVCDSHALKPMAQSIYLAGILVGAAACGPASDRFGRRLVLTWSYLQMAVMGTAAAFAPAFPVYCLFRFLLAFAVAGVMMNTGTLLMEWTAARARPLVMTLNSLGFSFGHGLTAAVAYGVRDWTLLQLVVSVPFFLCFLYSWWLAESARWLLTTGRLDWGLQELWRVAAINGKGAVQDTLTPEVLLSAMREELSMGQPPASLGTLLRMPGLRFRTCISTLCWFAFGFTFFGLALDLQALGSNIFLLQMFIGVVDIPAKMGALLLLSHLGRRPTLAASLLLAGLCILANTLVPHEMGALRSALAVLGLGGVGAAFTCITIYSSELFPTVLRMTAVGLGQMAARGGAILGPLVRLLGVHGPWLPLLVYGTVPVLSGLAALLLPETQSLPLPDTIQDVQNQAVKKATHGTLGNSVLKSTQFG

The target of test [1] is URAT1 (Homo sapiens, UniProt Q96S37). Briefly: cell-based.
Test [2] concerns the target T1, OAT4 (Homo sapiens, UniProt Q9NSA0).
T1 sequence (Q9NSA0 with tags, fused parts or gaps): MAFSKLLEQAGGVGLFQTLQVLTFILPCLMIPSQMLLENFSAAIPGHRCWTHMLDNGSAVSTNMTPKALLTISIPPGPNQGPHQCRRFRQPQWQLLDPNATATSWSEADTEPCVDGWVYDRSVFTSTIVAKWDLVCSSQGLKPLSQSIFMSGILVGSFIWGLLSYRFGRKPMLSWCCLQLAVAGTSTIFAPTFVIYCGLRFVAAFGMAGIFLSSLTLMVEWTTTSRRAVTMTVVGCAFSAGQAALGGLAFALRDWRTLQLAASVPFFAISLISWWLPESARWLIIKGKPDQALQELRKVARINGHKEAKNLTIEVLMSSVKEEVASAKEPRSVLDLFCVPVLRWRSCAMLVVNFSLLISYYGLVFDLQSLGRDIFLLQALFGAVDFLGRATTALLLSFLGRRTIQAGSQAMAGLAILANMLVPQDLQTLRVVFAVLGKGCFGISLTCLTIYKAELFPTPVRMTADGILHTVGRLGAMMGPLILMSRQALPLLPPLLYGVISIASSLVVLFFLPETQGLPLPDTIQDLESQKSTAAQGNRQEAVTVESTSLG
The test is described as follows: OAT4 urate transport assay in stably transfected HEK293 cells. In kind it is cell-based. To be noted: 100 μM 14C-urate, 10 min, OAT4-551G cells; mean ± SEM, three experiments; read-out: Potency (IC50) against OAT4.

In the case of `O=C(O)CSc1nnc(Br)n1-c1ccc(C2CC2)c2ccccc12` [Lesinurad, 2-((5-bromo-4-(4-cyclopropylnaphthalen-1-yl)-4H-1,2,4-triazol-3-yl)thio) acetic acid], the IC50 in test [1] turned out to be 3530 ± 520 nM; in test [2], 2030 ± 660 nM.
